Experimental data as given in article PMC11900932 (International Journal of Molecular Sciences, 2025).

Tests used:
Test in all cases: biochemical
SARS-CoV-2 3CL^pro [1] = target: T1, SARS-CoV-2 3CL^pro (Severe acute respiratory syndrome coronavirus 2, UniProt P0DTD1)
SARS-CoV-2 3CL^pro [2] = target: T1, SARS-CoV-2 3CL^pro; remark: listed apart in the source
SARS-CoV-2 3CL^pro [3] = target: T1, SARS-CoV-2 3CL^pro; remark: listed apart in the source

Question: Which IC50 (SARS-CoV-2 3CL^pro [1]) does the source give for `NC(CO)C(=O)NNCc1ccc(O)c(O)c1O` (stereo not drawn) [Benserazide hydrochloride] here?
Answer: The IC50 was 370 ± 20 nM.

Question: What about the inhibition at 5 µM (SARS-CoV-2 3CL^pro [1]; read-out: inhibition of SARS-CoV-2 3CLpro activity) of the same compound?
Answer: Its inhibition at 5 µM is > 50%.

Question: And the kon (SARS-CoV-2 3CL^pro [2]; pH 7.4, read-out: binding rate constant ka)?
Answer: The kon was 352 M⁻¹ s⁻¹.

Question: What about the koff (SARS-CoV-2 3CL^pro [2]; read-out: dissociation rate constant kd) of the same compound?
Answer: Its koff is 0.0162 s⁻¹.

Question: And the Ki (SARS-CoV-2 3CL^pro [3])?
Answer: The Ki was 2240 nM.

Question: What about the kinact (SARS-CoV-2 3CL^pro [3]) of the same compound?
Answer: The kinact was 0.08 s⁻¹.

Structures can show the parent of a compound that is named as a salt.
